Source: article PMC2821452 (Synapse (New York, N.Y.), 2010)

Amino acid sequences for entries named in this document (tags omitted).
UniProt P35372, whole entry: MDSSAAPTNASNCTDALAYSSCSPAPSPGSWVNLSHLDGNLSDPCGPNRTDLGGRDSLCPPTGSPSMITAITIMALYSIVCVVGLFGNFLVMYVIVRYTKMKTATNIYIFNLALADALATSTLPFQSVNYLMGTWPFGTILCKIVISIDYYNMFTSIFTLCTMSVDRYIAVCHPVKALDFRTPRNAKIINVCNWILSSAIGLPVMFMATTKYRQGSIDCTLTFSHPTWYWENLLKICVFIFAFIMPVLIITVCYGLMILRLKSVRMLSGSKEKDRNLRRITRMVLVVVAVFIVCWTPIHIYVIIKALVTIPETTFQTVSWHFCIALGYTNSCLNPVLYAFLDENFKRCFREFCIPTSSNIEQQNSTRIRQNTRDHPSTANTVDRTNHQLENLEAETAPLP

Biological target: cloned human mu opioid receptor (hMOR-CHO cells) (Homo sapiens, UniProt P35372)
Conditions: control cell membranes, Fig. 1A

Cl.Oc1cccc([C@]23CCC[C@H](C2)N(C/C=C\c2ccccc2)CC3)c1 [KC-2-009, (+)-3-((1R,5S)-2-((Z)-3-Phenylallyl)-2-azabicyclo[3.3.1]nonan-5-yl)phenol hydrochloride]
EC50: 0.012 ± 0.004 µM
